{
  "source": "patent US20040076974A1",
  "about": "“Liver necrosis predictive genes” (priority 2002, published 2004)",
  "key": {"[1]": {"system": "toxicologically relevant rat genes (rat CT array)", "details": "in vivo"}, "Sprague Dawley rats": {"system": "Sprague Dawley rats", "details": "rat, in vivo"}},
  "data": [
    {"smiles": "CN(C)[C@@H]1C(O)=C(C(N)=O)C(=O)[C@@]2(O)C(O)=C3C(=O)c4c(O)cccc4[C@@](C)(O)[C@H]3C[C@@H]12", "note": "[tetracycline]", "values": [
      {"measurement": "Cytochrome P450 3A1 expression", "setting": "[1]", "result": 1.057}
    ]},
    {"smiles": "S=C=Nc1cccc2ccccc12", "note": "[1-naphthylisothiocyanate]", "values": [
      {"measurement": "toxicity at the low dose", "setting": "Sprague Dawley rats", "result": "not at the low dose"}
    ]}
  ]
}
